Bioassay records (PubChem)
Yeast UUG start-1: alters start codon recognition fidelity in yeast. S. cerevisiae UUG-firefly luciferase reporter, luminescence/redox ratio. 350,000 tested, 0.13% active. activity score, % at 18.7 µM. AID 602363;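 active means replicate mean at a twofold rise or more, about +100% in these data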;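 further: firefly luciferase made from a UUG start codon reports start codon fidelity; reporter light over untreated wells divided by growth signal over untreated wells; some hits fall short of that in this replicate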
ARFGAP1 inhibitor: rat ARFGAP1 inhibition; inhibition, % at 16.5 µM; Q62848; 0.26% of 360,000 active; Arfgap1-stimulated ARF1 GTP hydrolysis, GDP FP detection; AID 651572;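 active = inhibition above a per-plate limit, mean inhibition of low control wells plus 3 SD, cut at about 25% in these data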;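 also: 0% = DMSO wells with enzyme and 100% = wells lacking Arfgap1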
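Material: rat Arfgap1 GAP domain (His6, aa 1-136), purified enzyme. Also added: human ARF1(Δ1-17)-GTP substrate. Compound dosing: 16.5 µM single point, 1.26% DMSO. Timing: enzyme reaction 120 min at 25 °C after 20 min preincubation. Signal: GDP detection by fluorescence polarization. Read-out basis: percent inhibition of GAP-stimulated GDP formation, scaled between DMSO and no-Arfgap1 medians.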
ASAP1 GAP inh: blocks human ASAP1-stimulated Arf1 GTP hydrolysis. GDP FP detection. inhibition, % at 16.5 µM. 0.19% of 360,000 active; in the data active = inhibition above about 25%;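 also: 0% = vehicle with enzyme and substrate and 100% = no enzyme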
MC4R ag barr: activates human MC4R beta-arrestin recruitment | P32245 | U2OS MC4R beta-arrestin complementation, luminescence; percent of melanotan II response, DMSO zero | activation, % at 8.9 µM | 0.98% of 360,000 active | AID 540308;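 active = activation above a per-plate cutoff, the mean activation of sample wells on that plate plus 3 SD, cut at about 8% in these data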
CendR NRP1 mod: alters CendR peptide binding to human NRP-1. 0.85% of 360,000 active. inhibition, % at 25 µM. FAM-RPARPAR peptide binding to NRP-1, fluorescence polarization. O14786;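 active = inhibition or corrected inhibition above about 18%, plus a signal ratio from 0.5 to 1.5, limit read from the data, passing the limit was not always enough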
MC4R antag cAMP: human MC4R antagonism in cAMP assay. P32245. MC4R-expressing cells, MTII-stimulated cAMP, LANCE TR-FRET. inhibition, % at 6.5 µM. 0.48% of 360,000 active;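 active = inhibition above its plate's cutoff, the mean of tested wells on that plate plus 3 SD, cut at about 29% in these data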;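 also: 0% = Melanotan II alone and 100% = Melanotan II plus saturating MCL0020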
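Assay system: human MC4R-expressing U2OS cells; reagent: Melanotan II stimulation of cells; dosing: 6.5 µM single dose; timing: compound 30 min, challenge 1 h, detection 1 h; signal: TR-FRET cAMP assay; replicates: one well per compound, no replicates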
MC4R barr ag: human MC4R beta-arrestin agonism confirmation; shares compounds with MC4R ag barr; U2OS MC4R beta-arrestin recruitment, luminescence; scaled DMSO 0%, Melanotan II 100%; activation, % at 8.9 µM; 31% of 2,400 active; AID 602192;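 active = mean activation across replicates above the hit cutoff set in the earlier primary screen, cut at about 8% in these data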
MOR-DOR barr ag: activates mu-delta opioid heterodimer, MC4R agonist counter-screen | U2OS PathHunter beta-arrestin, beta-gal luminescence; percent of deltorphin B response, DMSO zero | activation, % at 9.2 µM | 5.8% of 2,400 active | shares compounds with MC4R ag barr;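 active = mean activation across replicates exceeds the hit threshold derived in the earlier primary screen, cut at about 18% in these data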;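 also: 100% = deltorphin B at 0.9 µM final and 0% = DMSO alone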
Yeast UUG start-2: alters UUG start codon use in yeast; shares compounds with Yeast UUG start-1; S. cerevisiae UUG-start firefly luciferase, luminescence, 4 h; 100% means double the DMSO signal; 540 tested, under 10 active; activation, % at 38 µM;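 active = signal increase whose fitted curve reaches an absolute level of 40 at a concentration under 10 µM; inactive = activity opposite to the expected increase, or the rest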
ASAP1 GAP conf: ASAP1 inhibition confirmed | ASAP1-stimulated Arf1 GTPase, GDP fluorescence polarization | inhibition, % at 16.5 µM | shares compounds with ASAP1 GAP inh | 37% of 620 active;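 active = mean inhibition over triplicates exceeds the hit threshold derived for the earlier primary screening run, cut at about 25% in these data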
ARFGAP1 inh conf: confirmation of rat ARFGAP1 inhibitors; shares compounds with ARFGAP1 inhibitor; ARFGAP1-stimulated ARF1 GTP hydrolysis, GDP tracer FP; inhibition, % at 16.5 µM; 30% of 890 active; AID 651608;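 active = average inhibition over triplicates above the hit cutoff set in the earlier primary screen, cut at about 25% in these data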;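 also: 0% = Arfgap1 plus ARF1-GTP with DMSO and 100% = wells lacking Arfgap1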
Active calls of the source: *; / = not tested or not shown; + = active, no number. This is a sample that favours compounds with a hit; in the whole collection about 2.3% have one here.

The opening two entries, ahead of the listing:
SMILES	Yeast UUG start-1	ARFGAP1 inhibitor	ASAP1 GAP inh	MC4R ag barr	CendR NRP1 mod	MC4R antag cAMP	MC4R barr ag	MOR-DOR barr ag	Yeast UUG start-2	others
NC(Cc1ccc(C(F)(F)F)cc1)c1csc(Nc2ccc(C(=O)NCCCO)cn2)n1 (stereo unspecified)	7.3	9.5	-12.9	3.5	-10.0	8.5	/	/	/
NC(Cc1ccc(C(F)(F)F)cc1)c1csc(Nc2ccc(C(=O)NCc3ccco3)cn2)n1 (stereo unspecified)	-14.1	12.3	28.0*	15.8*	-29.5	11.1	32.1*	12.8	/	ASAP1 GAP conf=12.6

The list itself, from the first entry:
SMILES	Yeast UUG start-1	ARFGAP1 inhibitor	ASAP1 GAP inh	MC4R ag barr	CendR NRP1 mod	MC4R antag cAMP	MC4R barr ag	MOR-DOR barr ag	Yeast UUG start-2	others
NC(Cc1ccc(C(F)(F)F)cc1)c1csc(Nc2ccc(C(=O)NCCCO)cn2)n1 (stereo unspecified)	7.3	9.5	-12.9	3.5	-10.0	8.5	/	/	/
NC(Cc1ccc(C(F)(F)F)cc1)c1csc(Nc2ccc(C(=O)NCc3ccco3)cn2)n1 (stereo unspecified)	-14.1	12.3	28.0*	15.8*	-29.5	11.1	32.1*	12.8	/	ASAP1 GAP conf=12.6
Cc1cc2oc3ccc(NCCCn4ccnc4)cc3c(=O)c2cc1C	-14.5	114.9*	78.7*	11.1*	-133.4	-6.4	1.4	11.6	/	ASAP1 GAP conf=127.3*;ARFGAP1 inh conf=+
Cc1cc2oc3ccc(NCCCN4CCOCC4)cc3c(=O)c2cc1C	-17.1	5.2	-15.7	1.9	8.4	-1.3	/	/	/
Cc1ccc(CNC(=O)Cn2c(=O)c3sccc3n(Cc3ccc([N+](=O)[O-])cc3)c2=O)cc1	/	36.3*	22.4	14.2*	-5.5	15.3	-3.1	3.4	/	ARFGAP1 inh conf=55.4*
CCN1CCN(Cc2ccc(NC(=O)c3cc(NC(=O)C(=O)c4c[nH]c5ccccc45)cc(OC)c3)cc2C(F)(F)F)CC1	-0.6	46.3*	19.8	23.7*	-21.8	3.4	22.1*	9.2	/	ARFGAP1 inh conf=36.2*
Cc1ccc(NC(=O)C2C3/C=C\CCCCC32)cc1C (stereo unspecified)	-10.5	44.2*	9.4	18.7*	-6.1	-3.5	2.4	5.7	/	ARFGAP1 inh conf=-3.0
CCC(=O)N[C@@H]1C=C[C@H](CC(=O)NCc2ccccc2OC)O[C@H]1CO	-16.6	/	/	/	/	/	/	/	/
COc1ccc(-c2cc(NC=O)c3ncc(-c4ccc(C(C)=O)cc4)n3c2)cn1	-21.1	29.2*	20.5	17.3*	-61.1	3.2	15.7*	4.2	/	ARFGAP1 inh conf=34.3*
CC(=O)c1ccc(-c2cnc3c(NC=O)cc(-c4ccccc4Oc4ccccc4)cn23)cc1	-8.8	1.2	7.4	1.4	-9.6	2.0	/	/	/
CN(C)CCNC(=O)c1cccc(-c2cnc3c(NC=O)cc(-c4cccc(F)c4)cn23)c1	-13.1	4.0	9.7	-0.6	-17.7	-3.4	/	/	/
CN(C)CCNC(=O)c1cccc(-c2cnc3c(NC=O)cc(/C=C/c4ccccc4)cn23)c1	-5.7	34.5*	42.0*	17.2*	-31.2	-5.1	7.2	3.5	/	ASAP1 GAP conf=36.7*;ARFGAP1 inh conf=44.7*
O=C(OCC(=O)N1CCN(C(=O)c2ccco2)CC1)c1cc(-c2ccco2)nc2ccccc12	-10.4	/	/	1.4	-24.9	-17.9	/	/	/
O=C(OCC(=O)N1CCN(C(=O)c2ccco2)CC1)c1cc(-c2ccc(Cl)c(Cl)c2Cl)nc2ccccc12	/	36.5*	24.5	11.1*	-6.2	-1.6	5.2	2.9	/	ARFGAP1 inh conf=44.7*
C[C@H]1CN([C@@H](C)CO)C(=O)c2cc(C#CC3CCCC3)cnc2O[C@@H]1CN(C)Cc1ccncc1	-8.2	/	/	/	/	/	/	/	/
COc1ccc(NC(=O)Nc2cccc3c2O[C@H](CN(C)S(=O)(=O)c2ccc(F)cc2)[C@@H](C)CN([C@@H](C)CO)C3=O)cc1	7.7	/	/	/	/	/	/	/	/
O=c1c(Cl)c(N/N=C/c2ccc(Br)cc2)cnn1-c1ccccc1	-18.1	43.7*	42.2*	15.9*	0.6	6.6	11.7*	3.3	/	ASAP1 GAP conf=32.5*;ARFGAP1 inh conf=64.6*
CS(=O)(=O)Nc1ccc2c(c1)[C@@H]1C[C@H](CC(=O)N3CCOCC3)O[C@H](CO)[C@@H]1O2	10.3	/	/	/	/	/	/	/	/
CN(C(=O)c1ccccc1Cl)C1CCCCC1	-12.6	-5.6	17.8	-2.0	12.2	-2.4	/	/	/
CN(N=Nc1ccccc1C(=O)O)C1CCCCC1	168.9*	8.5	3.9	-0.7	-15.9	3.0	/	/	-5.4
O=S(=O)(NC1=NCCCCC1)c1ccccc1Cl	446.5*	-4.3	4.0	-0.1	2.2	6.6	/	/	-2.4
Cc1ccccc1S(=O)(=O)NC1=NCCCCC1	/	5.8	-0.3	-3.8	-0.7	18.9	/	/	/
CCc1ccc(/C=N/NC(=O)c2cc(C3CC3)nc3ccccc23)s1	307.4*	6.3	15.9	-1.9	6.3	-28.1	/	/	-4.4
C[C@H]1CCCCO[C@H](CN(C)Cc2ccc(Cl)c(Cl)c2)[C@@H](C)CN([C@@H](C)CO)C(=O)c2cc(NC(=O)CCC(F)(F)F)ccc2O1	12.7	/	/	/	/	/	/	/	/
C[C@H](CO)N1C[C@H](C)[C@@H](CN(C)C(=O)CN(C)C)Oc2cc(Br)ccc2S1(=O)=O	6.2	/	/	/	/	/	/	/	/

Other results:
SMILES	Yeast UUG start-1	ARFGAP1 inhibitor	ASAP1 GAP inh	MC4R ag barr	CendR NRP1 mod	MC4R antag cAMP	MC4R barr ag	MOR-DOR barr ag	Yeast UUG start-2	others
O=C(CNC(=S)NC(=O)C1CCCCC1)c1ccccc1	522.6*	-0.4	9.9	2.2	-3.6	6.1	/	/	2.0
COc1ccc2oc(C(=O)OCC(=O)N(C)Cc3ccccc3)c(C)c2c1	11.5	-3.0	-9.9	-4.1	-1.3	-3.0	/	/	10.4
COc1ccc2oc(C(=O)OCC(=O)NC(C)c3ccccc3)c(C)c2c1 (stereo unspecified)	-2.9	-0.2	4.7	-3.0	11.7	1.9	/	/	11.2
COc1ccc2oc(C(=O)OCC(=O)NCc3ccc(OC)c(OC)c3)c(C)c2c1	-3.2	9.9	2.4	-1.4	-16.7	2.2	/	/	6.2
COc1ccc2oc(C(=O)OCC(=O)NC(=O)NC(C)C)c(C)c2c1	5.1	-4.2	5.4	-1.6	-14.6	0.7	/	/	/
CO[C@H]1CN(C)C(=O)c2ccc(NC(=O)C3CC3)cc2OC[C@H](C)N(C(=O)Cc2ccccn2)C[C@H]1C	4.6	/	/	/	/	/	/	/	/
CCCCCCn1c(SCCN2CCOCC2)nc2c1c(=O)[nH]c(=O)n2C	-14.9	-9.9	-12.0	-1.6	2.3	3.9	/	/	/
CCCCCn1c(SCCN2CCOCC2)nc2c1c(=O)[nH]c(=O)n2C	360.6*	2.6	11.9	1.0	2.5	1.4	/	/	-8.5
O=C(NCC1OCCc2ccccc21)c1ccco1 (stereo unspecified)	322.9*	8.8	9.0	-0.8	-17.0	6.0	/	/	2.2
C[C@@H]1CCCCO[C@H](CN(C)Cc2ccc3c(c2)OCO3)[C@H](C)CN([C@@H](C)CO)C(=O)c2cc(NS(=O)(=O)c3ccc(Cl)cc3)ccc2O1	33.0	/	/	/	/	/	/	/	/

Pulled one by one from the entries so far, 2 records:
SMILES	Yeast UUG start-1	ARFGAP1 inhibitor	ASAP1 GAP inh	MC4R ag barr	CendR NRP1 mod	MC4R antag cAMP	MC4R barr ag	MOR-DOR barr ag	Yeast UUG start-2	others
CO[C@H]1CN(C)C(=O)c2ccc(NC(=O)C3CC3)cc2OC[C@H](C)N(C(=O)Cc2ccccn2)C[C@H]1C	4.6	/	/	/	/	/	/	/	/
COc1ccc2oc(C(=O)OCC(=O)NCc3ccc(OC)c(OC)c3)c(C)c2c1	-3.2	9.9	2.4	-1.4	-16.7	2.2	/	/	6.2
